Measured values: patent publication EP2179732A1, “PHARMACEUTICAL COMPOSITION COMBINING AN ENZYME HMG-COA REDUCTASE INHIBITING AGENT AND A GASTROINTESTINAL LIPASE ENZYME INHIBITING AGENT” (Espinosa Abdala, Leopoldo de Jesús, priority 2007, dated 2008)

Tested on: obese patients with hypercholesterolemia and hypertriglyceridemia
Test: Clinical comparative study: body weight (body mass index, waist circumference reduction, weight loss)

SMILES: CC(C)c1c(C(=O)Nc2ccccc2)c(-c2ccccc2)c(-c2ccc(F)cc2)n1CC[C@@H](O)C[C@@H](O)CC(=O)O [Atorvastatin]
- IMC (Body Mass Index) (1 year): 29.3 (1.4) Kg./M^2
- IMC (Body Mass Index) (6 Months): 31.3 (1.3) Kg./M^2
